{"sequences": {"note": "The chains behind the UniProt entries cited, without tags or fusion partners.", "UniProt Q86U44, whole entry": "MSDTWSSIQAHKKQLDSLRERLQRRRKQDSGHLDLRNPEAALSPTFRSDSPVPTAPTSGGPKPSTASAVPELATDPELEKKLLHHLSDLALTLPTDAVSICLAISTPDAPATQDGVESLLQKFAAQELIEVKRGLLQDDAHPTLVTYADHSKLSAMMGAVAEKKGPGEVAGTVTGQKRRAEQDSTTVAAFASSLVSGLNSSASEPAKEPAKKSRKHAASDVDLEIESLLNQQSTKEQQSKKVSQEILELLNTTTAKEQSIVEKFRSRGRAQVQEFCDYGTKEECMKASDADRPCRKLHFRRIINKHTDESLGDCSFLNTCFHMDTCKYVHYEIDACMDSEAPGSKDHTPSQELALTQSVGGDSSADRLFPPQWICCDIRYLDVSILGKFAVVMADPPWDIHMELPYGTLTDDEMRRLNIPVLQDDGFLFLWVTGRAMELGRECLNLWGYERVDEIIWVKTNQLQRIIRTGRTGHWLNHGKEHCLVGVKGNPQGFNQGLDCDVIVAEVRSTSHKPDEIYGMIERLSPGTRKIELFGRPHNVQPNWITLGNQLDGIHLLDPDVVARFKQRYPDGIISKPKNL"}, "source": "ChEMBL document CHEMBL5241109", "about": "“Roles and drug development of METTL3 (methyltransferase-like 3) in anti-tumor therapy” (Eur J Med Chem, 2022)", "biological_target": "N6-adenosine-methyltransferase catalytic subunit (Homo sapiens, UniProt Q86U44)", "experiment": "Inhibition of METTL3 (unknown origin) assessed as remaining activity at 500 uM relative to control", "data": [{"smiles": "Nc1ncnc2c1ncn2[C@@H]1O[C@H](C(=O)NCCCCN2CCCC2)[C@@H](O)[C@H]1O", "values": [{"measurement": "Activity", "value": -3, "unit": "%"}]}, {"smiles": "Nc1ncnc2c1ncn2[C@@H]1O[C@H](CO)[C@@H](O)[C@H]1O", "note": "[ADENOSINE]", "values": [{"measurement": "Activity", "value": 63, "unit": "%"}]}]}
